Assay results: patent publication US4740588A, “Novel substrate peptides” (Washington University, priority 1986, dated 1988)

Tested on: NCCCC[C@H](NC(=O)[C@@H]1CCCN1C(=O)[C@H](CCCCN)NC(=O)[C@H](CO)NC(=O)[C@H](CCCCN)NC(=O)[C@H](CO)NC(=O)[C@H](CO)NC(=O)CN)C(N)=O
Assay: purified protein, by the assay type
Conditions: other: peptide as acyl acceptor; partially purified yeast enzyme; 1 μCi [3H]-myristic acid per tube; 30.0 °C

Q: Which Km does the source give for “Yeast Myristoylating Enzyme (Saccharomyces cerevisiae S288C)” here?
A: 40 µM
